Protein sequences, listed by entry. Tags and fused reporters are not part of them.
UniProt P29371, whole entry: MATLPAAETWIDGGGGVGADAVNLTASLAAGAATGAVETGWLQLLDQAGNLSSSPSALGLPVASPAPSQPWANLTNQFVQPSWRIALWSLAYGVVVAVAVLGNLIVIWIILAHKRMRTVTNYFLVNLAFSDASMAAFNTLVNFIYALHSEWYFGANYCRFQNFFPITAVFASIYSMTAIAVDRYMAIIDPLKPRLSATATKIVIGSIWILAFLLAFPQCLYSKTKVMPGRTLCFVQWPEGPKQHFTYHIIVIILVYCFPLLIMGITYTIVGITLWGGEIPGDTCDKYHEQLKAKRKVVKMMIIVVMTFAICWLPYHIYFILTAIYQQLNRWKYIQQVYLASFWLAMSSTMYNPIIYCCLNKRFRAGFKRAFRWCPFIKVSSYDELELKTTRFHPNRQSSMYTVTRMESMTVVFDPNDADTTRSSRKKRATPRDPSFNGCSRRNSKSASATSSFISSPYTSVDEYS

According to ChEMBL document CHEMBL1275402, “Virtual screening to identify novel antagonists for the G protein-coupled NK3 receptor” (J Med Chem, 2010):

Target: Neuromedin-K receptor (Homo sapiens, UniProt P29371)
Assay: Antagonist activity against human NK3 receptor expressed in HEK293 cells assessed as inhibition of NKB-induced increase of intracellular calcium level by fluorescent plate-reader analysis
Format: functional, cell-based

IC50: 0.0166 µM
Compound: CC[C@H](NC(=O)c1c(O)c(-c2ccccc2)nc2ccccc12)c1ccccc1 [TALNETANT]
